Data from BindingDB's records for doi:10.1124/jpet.105.092155 (Acadia Pharmaceuticals, 2005).

Sequences of proteins named here, by UniProt entry; tags and fusion partners are left off. A line that says so, or that is headed by a name, gives the form on record, which may keep a tag or linker.
UniProt P35462, as listed by the source: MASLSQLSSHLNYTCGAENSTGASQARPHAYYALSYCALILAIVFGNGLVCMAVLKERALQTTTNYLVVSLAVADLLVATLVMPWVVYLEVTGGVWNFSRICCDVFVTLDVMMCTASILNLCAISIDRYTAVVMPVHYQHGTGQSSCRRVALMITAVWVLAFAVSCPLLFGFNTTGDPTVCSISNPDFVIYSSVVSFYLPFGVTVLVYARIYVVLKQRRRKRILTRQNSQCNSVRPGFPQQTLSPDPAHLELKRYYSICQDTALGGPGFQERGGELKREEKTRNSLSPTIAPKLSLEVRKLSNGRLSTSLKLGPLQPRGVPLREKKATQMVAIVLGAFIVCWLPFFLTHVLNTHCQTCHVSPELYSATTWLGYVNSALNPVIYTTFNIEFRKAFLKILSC
UniProt P21917, whole entry: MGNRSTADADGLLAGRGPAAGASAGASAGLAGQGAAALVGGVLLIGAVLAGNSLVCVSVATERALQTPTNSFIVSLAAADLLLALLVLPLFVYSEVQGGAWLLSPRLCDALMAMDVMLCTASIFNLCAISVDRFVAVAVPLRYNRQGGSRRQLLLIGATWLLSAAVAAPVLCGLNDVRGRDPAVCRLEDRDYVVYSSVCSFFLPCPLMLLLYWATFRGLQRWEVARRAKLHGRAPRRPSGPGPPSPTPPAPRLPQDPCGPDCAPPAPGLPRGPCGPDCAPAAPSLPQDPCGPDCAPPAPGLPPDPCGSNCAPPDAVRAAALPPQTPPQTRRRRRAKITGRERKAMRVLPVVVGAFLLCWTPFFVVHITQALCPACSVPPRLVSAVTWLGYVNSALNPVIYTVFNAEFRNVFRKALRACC

Assays:
D(3) dopamine receptor = D(3) dopamine receptor (Homo sapiens, UniProt P35462)
D(4) dopamine receptor = D(4) dopamine receptor (Homo sapiens, UniProt P21917)

- Ki (D(3) dopamine receptor): 7.9 nM and 8.2 nM
- Ki (D(4) dopamine receptor): 54 nM
Compound: CCN1CCCC1CNC(=O)c1cc(S(N)(=O)=O)ccc1OC (configuration not stated) [N-[(1-ethylpyrrolidin-2-yl)methyl]-2-methoxy-5-sulfamoylbenzamide]

“And” between values parts separate entries of the source, which are not always exact repeats. Equal values may be shown once.
